Test results as given in paper PMC7723054.
This is one part of the list.

T1: LIN28A (human?, UniProt Q9H9Z2 1-209)
T1 sequence: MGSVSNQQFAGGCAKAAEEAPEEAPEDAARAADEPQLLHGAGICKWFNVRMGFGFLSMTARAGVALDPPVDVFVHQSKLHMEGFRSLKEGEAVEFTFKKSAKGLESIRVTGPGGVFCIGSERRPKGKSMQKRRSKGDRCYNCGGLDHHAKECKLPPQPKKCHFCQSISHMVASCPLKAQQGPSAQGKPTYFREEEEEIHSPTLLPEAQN

T2: CIRBP (Homo sapiens, UniProt Q14011 1-172)
T2 sequence: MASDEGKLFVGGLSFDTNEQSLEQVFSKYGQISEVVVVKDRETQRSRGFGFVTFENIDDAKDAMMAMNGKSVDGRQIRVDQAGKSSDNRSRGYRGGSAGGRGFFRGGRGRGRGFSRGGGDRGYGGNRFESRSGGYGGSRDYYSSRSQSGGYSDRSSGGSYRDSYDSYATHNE

T3: DHX36 (Homo sapiens, UniProt Q9H2U1 1-1008)
T3 sequence: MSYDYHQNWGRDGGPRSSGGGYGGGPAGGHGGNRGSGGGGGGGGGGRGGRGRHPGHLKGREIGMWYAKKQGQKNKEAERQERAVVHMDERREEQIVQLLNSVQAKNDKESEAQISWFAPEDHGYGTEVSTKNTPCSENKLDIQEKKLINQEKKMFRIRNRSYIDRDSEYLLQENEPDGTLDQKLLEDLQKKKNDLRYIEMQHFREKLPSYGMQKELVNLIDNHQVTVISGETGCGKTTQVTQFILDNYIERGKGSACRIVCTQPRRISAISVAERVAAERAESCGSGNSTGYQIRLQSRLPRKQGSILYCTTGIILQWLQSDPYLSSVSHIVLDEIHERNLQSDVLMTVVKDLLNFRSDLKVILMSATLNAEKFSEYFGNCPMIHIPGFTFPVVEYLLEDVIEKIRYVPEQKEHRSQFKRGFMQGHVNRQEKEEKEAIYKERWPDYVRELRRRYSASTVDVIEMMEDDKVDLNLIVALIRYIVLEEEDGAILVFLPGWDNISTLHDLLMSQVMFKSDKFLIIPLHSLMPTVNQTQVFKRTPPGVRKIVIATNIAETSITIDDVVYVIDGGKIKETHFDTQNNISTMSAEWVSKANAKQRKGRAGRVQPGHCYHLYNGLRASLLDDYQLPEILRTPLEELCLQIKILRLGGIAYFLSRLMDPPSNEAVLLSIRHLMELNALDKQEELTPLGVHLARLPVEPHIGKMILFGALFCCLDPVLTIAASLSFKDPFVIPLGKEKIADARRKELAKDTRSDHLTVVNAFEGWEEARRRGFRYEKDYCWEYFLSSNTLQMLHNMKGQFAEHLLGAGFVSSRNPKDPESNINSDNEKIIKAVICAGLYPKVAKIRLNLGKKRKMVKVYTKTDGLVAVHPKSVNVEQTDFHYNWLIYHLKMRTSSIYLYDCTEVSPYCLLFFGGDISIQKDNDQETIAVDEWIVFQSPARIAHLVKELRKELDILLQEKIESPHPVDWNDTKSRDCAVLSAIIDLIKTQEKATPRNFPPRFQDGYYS

B1: NEAT1_ParasoR_ID47 (structured_RNA)
RNA: GGGAAAGCACGUAUAGGGGAAUCAUAUCGGUGUACGAAGUUUCAGCCUGUCCUGAAGAGACCAAAAUUAUGCAGAUUUAGGUAAGGCUGAAGCUUCGUGCAC
B2: hsa-mir-4286 (structured_RNA)
RNA: GGGAACGCGAAGGGUUGUUUAUUGCAAGGGUGUACGAAGUUUCAGCACCAUAGUCAUAAGUUAGGAGAUGUUAGAGCUGUGAGUGCUGAAGCUUCGUGCAC
B3: hsa-mir-4698 (structured_RNA)
RNA: GGGAAGCGGGCAAAUGAGGUGCGUUUAAGGUGUACGAAGUUUCAGCUCCACCUAGACGGGCCUGGGUCAAGCUGAAGCUUCGUGCAC
B4: hsa-mir-550a-1 (structured_RNA)
RNA: GGGAACCUCAGGAGCGCAAGCCUUGAUCGGUGUACGAAGUUUCAGCAGCCCUGUUGUUGUAAGAUAGUGUGCUGAAGCUUCGUGCAC
B5: hsa-mir-569 (structured_RNA)
RNA: GGGACGGUCCCAACUAGUGAACUGCUUUGGUGUACGAAGUUUCAGCAACAACAGCAUCAGAAGCAACAUCAGCUUUAGUUGCUGAAGCUUCGUGCAC
B6: hsa-mir-5090 (structured_RNA)
RNA: GGGAAGGCCAAUACACUGUUCCCGGAUAGGUGUACGAAGUUUCAGCGGUGCAAAGCCUGCCCGCCCCGCUGAAGCUUCGUGCAC
B7: hsa-mir-194-2 (structured_RNA)
RNA: GGGACGUUACCACGACUAAGGUAAUGAUGGUGUACGAAGUUUCAGCGUGGAAGUGCCCACUGGUUCCAGCUGAAGCUUCGUGCAC
B8: hsa-mir-3664 (structured_RNA)
RNA: GGGAAUUGAAGCAACGAAACUAAGGCCUGGUGUACGAAGUUUCAGCGAGUACCUUCCAACACGAGCUCUCGCUGAAGCUUCGUGCAC
B9: hsa-mir-597 (structured_RNA)
RNA: GGGAACACCCUCUCUGGGAUUUACGGUGGGUGUACGAAGUUUCAGCACCACUGUGAAGACAGUAAAAUGUACAGUGGUGCUGAAGCUUCGUGCAC
B10: hsa-mir-6124 (structured_RNA)
RNA: GGGAACCACUACUGGUGCCAGCGAUUUUGGUGUACGAAGUUUCAGCAGGAGAAGGUGAGACCAAUGUCCUGGGUGCCACUCCUGCUGAAGCUUCGUGCAC
B11: hsa-mir-769 (structured_RNA)
RNA: GGGAAGUCAUAGACUGCCUGCAGCAUAAGGUGUACGAAGUUUCAGCUGAGCUGUGAUGUUGCUCUCGAGCUGGGCUGAAGCUUCGUGCAC
B12: hsa-mir-7107 (structured_RNA)
RNA: GGGAACUAAGCAGCAAUUAAAAGUGCGCGGUGUACGAAGUUUCAGCAGGGCAAGUCCAAAGGUAUACAGUUGGUCUGUUCAGCUGAAGCUUCGUGCAC
B13: hsa-mir-613 (structured_RNA)
RNA: GGGAGGAUAUGCCAACCGGACAUGCAAGGGUGUACGAAGUUUCAGCUCCUGUAGUGUCUUAUAUACAAUACAGUAGGAGCUGAAGCUUCGUGCAC
B14: hsa-mir-1283-1 (structured_RNA)
RNA: GGGAAAGGAACAUGAGGUAUGACGUAAUGGUGUACGAAGUUUCAGCUUCUGUUGUCAGAAAGAAGAGAAGCUGAAGCUUCGUGCAC
B15: hsa-mir-30b (structured_RNA)
RNA: GGGAAGACCCAUAUGCUUUAAGUGGUAGGGUGUACGAAGUUUCAGCUCAGCUGUAAUACAUGGAUUGGCUGGGCUGAAGCUUCGUGCAC
B16: hsa-mir-573 (structured_RNA)
RNA: GGGAAAAGGGUGGGAUGAACUACAAUAAGGUGUACGAAGUUUCAGCUCAGGAUCUACUCAUGUCGUCUUUGGGCUGAAGCUUCGUGCAC
B17: hsa-mir-4775 (structured_RNA)
RNA: GGGAGGCAGCCAACGAAUUGAUGAUUCUGGUGUACGAAGUUUCAGCCUCUUGAUAGCAGACAUGCUGAAGCUUCGUGCAC
B18: hsa-mir-6883 (structured_RNA)
RNA: GGGAAGAGCCAUGCUACGACGAUUAACUGGUGUACGAAGUUUCAGCGGAUGUGUUGACCCCUGAAGUGGUUCUGAUGACCUUUCCGCUGAAGCUUCGUGCAC
B19: hsa-mir-7154 (structured_RNA)
RNA: GGGACGAUAAUAUAGCGACCCCUGACUAGGUGUACGAAGUUUCAGCGCUUGGAGCCUUGGUAGGGAAGCAAGCUGAGGAGAUAGGAGCUGAAGCUUCGUGCAC
B20: hsa-mir-2277 (structured_RNA)
RNA: GGGACAGCAUGUGUUAGACUGGUAGGUUGGUGUACGAAGUUUCAGCGCCAGUCAGCGCUCACAUUAAGGCUGACGCUGAAGCUUCGUGCAC
B21: hsa-mir-4312 (structured_RNA)
RNA: GGGACACCGGAUUACAGCAGCCUACAAGGGUGUACGAAGUUUCAGCGGAGCCUUCCCCAGAGGAGUCAGGCCGCUGAAGCUUCGUGCAC
B22: hsa-mir-4478 (structured_RNA)
RNA: GGGAAUCGGGUCACAGCGACAAUGAAACGGUGUACGAAGUUUCAGCAGCCUCCAAACCUGUAGACAGGGUCAUGCAGUACUAGGGGCGAGGCUGAAGCUUCGUGCAC
B23: dU1A (structured_RNA)
RNA: GGGAGCCUUGUCACGGGGCGAAUAUUUCGGUGUACGAAGUUUCAGCAUUACGGUCCGCUGAAGCUUCGUGCAC

molecular target: U1A (Homo sapiens, UniProt P09012); test: FOREST: bead pull-down of RNA structure library v1, barcode microarray; U1A/LIN28A: 20 mM HEPES pH 7.5, 80 mM KCl, 20 mM NaCl, 10% glycerol, 2 mM DTT, 0.1 ug/uL BSA, 4 C; BG4/CIRBP/DHX36: 10 mM Tris-HCl pH 7.5, 100 mM KCl (or LiCl),; high values mean tight binding

Row | Binder | binding signal [z-score]
1 | B1 | 0.656
2 | B2 | 0.655
3 | B3 | 0.653
4 | B4 | 0.653
5 | B5 | 0.648
6 | B6 | 0.647
7 | B7 | 0.646
8 | B8 | 0.642
9 | B9 | 0.641
10 | B10 | 0.632
11 | B11 | 0.631
12 | B12 | 0.629
13 | B13 | 0.628
14 | B14 | 0.628
15 | B15 | 0.628
16 | B16 | 0.626
17 | B17 | 0.624
18 | B18 | 0.623
19 | B19 | 0.621
20 | B20 | 0.62
21 | B21 | 0.619
22 | B22 | 0.619
23 | B23 | 0.618

molecular target: T1, LIN28A; test: as above

Row | Binder | binding signal [z-score]
24 | B1 | 1.06
25 | B2 | 1.69
26 | B3 | 0.0757
27 | B4 | 0.83
28 | B5 | 0.71
29 | B6 | 0.77
30 | B8 | 0.393
31 | B9 | -0.167
32 | B10 | 0.0957
33 | B11 | 0.368
34 | B12 | 1.18
35 | B13 | -0.238
36 | B14 | -0.178
37 | B15 | 1.27
38 | B16 | -0.672
39 | B17 | 9.74e-05
40 | B18 | -0.675
41 | B19 | 1.35
42 | B20 | 1.82
43 | B21 | -1.07
44 | B22 | 0.177
45 | B23 | 1.03

molecular target: T2, CIRBP; test: as above

Row | Binder | binding signal [z-score]
46 | B1 | 1.12
47 | B2 | 1.62
48 | B3 | -0.324
49 | B4 | 0.441
50 | B5 | -0.276
51 | B6 | 0.358
52 | B7 | 0.0117
53 | B8 | 0.923
54 | B9 | -0.697
55 | B10 | -0.202
56 | B11 | -0.143
57 | B12 | 0.116
58 | B13 | -0.454
59 | B14 | 0.258
60 | B15 | 0.793
61 | B16 | -0.846
62 | B17 | 0.0103
63 | B18 | -0.00776
64 | B19 | -0.0406
65 | B20 | 0.174
66 | B21 | 0.275
67 | B22 | -1.27
68 | B23 | -0.196

molecular target: T3, DHX36; test: as above

Row | Binder | binding signal [z-score]
69 | B1 | -0.0344
70 | B2 | -0.899
71 | B3 | 0.101
72 | B4 | -0.0353
73 | B5 | 0.194
74 | B6 | 0.963
75 | B7 | 0.889
76 | B8 | -0.0932
77 | B9 | -1.34
78 | B10 | -0.118
79 | B11 | -0.459
80 | B12 | 0.0271
81 | B13 | -0.0761
82 | B14 | 0.285
83 | B15 | -0.573
84 | B16 | -1.14
85 | B17 | -0.201
86 | B18 | -0.428
87 | B19 | 0.898
88 | B20 | -0.127
89 | B21 | -0.953
90 | B22 | 0.797
91 | B23 | 0.482
